# From PubChem BioAssay AID555 (SRMLSC, 2006)
# The list shows a part of the results, in another mix than the full data. Some tests of the compounds listed are not included; inactive here does not mean inactive elsewhere. Active and inactive are the calls of the source.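 How the source made its calls: active means ranked among the strongest by inhibition in the single 10 µM screen, a fixed top-ranked set picked for dose follow-up; inactive means the rest, inconclusive results apart.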
# Test system: mevalonate kinase [Streptococcus pneumoniae D39]
# Experiment: S. pneumoniae MK inhibitors, primary screen, biochemical, PK/LDH-coupled NADH absorbance (AID 555)
# Settings: purified MK, PK/LDH-coupled NADH absorbance 340 nm; at 10 µM; hits give high values
row,Structure (SMILES),inhibition
1,O=C(OC1CN2CCC1CC2)C(CO)(c1ccccc1)c1ccccc1 (configuration not stated),inactive: 6%
2,CN(C)c1cccc(C(=O)NCC2(N(C)C)CCCCC2)c1,inactive: 1%
